Assay results as given in US20190038644A1, “PREPARATION FOR NASAL-NASOPHARYNGEAL TREATMENT” (priority 2017, published 2019).

Conditions: aqueous solution

D-mannose/mannitol
saturated solution: 59 grams per 100 millilitres of s
